Compound activity (PubChem)
The list is not random: actives were taken first. Their share in the collection is about 2.4%.
Rango-impB inh: qHTS Assay for Inhibitors of Rango (Ran-regulated importin-beta cargo) - Importin beta complex formation; Potency, µM (highest dose often 92.2 µM); Rango CFP/YFP FRET sensor + importin beta, 45 min; hit rate 0.031% among 340,000; AID 540263, 2011; Importin subunit beta-1 (Homo sapiens), Q14974; calls by dose curve; note: nearly all actives have a fitted effect of over 15% in size
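FRET biosensor Rango (snurportin 1 IBB between N-terminal EYFP and C-terminal Cerulean), 50 nM in PBS/1 mM DTT/0.02% Tween-20/0.1% BSA, preincubated 5 min RT with compound; 0.125 microM importin beta added, 45 min RT, CFP/YFP FRET ratio read.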
PGK inhibitor: qHTS Assay to Find Inhibitors of Phosphoglycerate Kinase | Potency, µM (series often up to 57.5 µM), most hits filed as inhibitors | PGK/GAPDH coupled, Kinase-Glo luminescence, 60 min | hit rate 0.043% among 380,000 | Phosphoglycerate kinase, glycosomal (Trypanosoma brucei brucei), P07378; note: nearly all actives have a fitted effect of over 60% in size
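Recombinant glycosomal PGK reaction used 1,3-bisphosphoglycerate generated in-well by GAPDH (100nM final) in 100mM TEA pH 7.6, 5mM MgCl2, 0.01% Tween-20. After 60 minutes at room temperature, ATP was read by Kinase-Glo Plus luminescence end-point.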
Tb PFK inh: qHTS Assay to Find Inhibitors of T. brucei phosphofructokinase | hit rate 0.17% among 330,000 | T. brucei PFK, ADP-Glo luminescence | ATP-dependent 6-phosphofructokinase (Trypanosoma brucei brucei), O15648 | Potency, µM (titrated, usually from 57.5 µM), hits mostly inhibitors | AID 485367, 2010; note: nearly all actives have a fitted effect of over 60% in size
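PFK 1.25 nM, F6P 0.5 mM, ATP 0.1 mM, 0.1 M TEA pH 8.0, 5 mM MgCl2, 0.01% Tween20, 0.1% BSA; 45 min RT. ADP-Glo readout. qHTS titration up to 57 uM; curves fitted, compounds curve-classed.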
PKM2 activator: qHTS Assay for Activators of Human Muscle isoform 2 Pyruvate Kinase | Pyruvate kinase PKM (Homo sapiens), P14618 | purified PKM2, Kinase-Glo ATP luminescence, activation; response scale: 0% is enzyme alone, no compound | Potency, µM (highest dose often 57.5 µM), actives largely listed as activators | hit rate 0.34% among 260,000; note: nearly all actives have a fitted effect of over 55% in size
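Purified hPK-M2 (>95% pure) converted ADP (0.1 mM final) to ATP with 0.5 mM PEP in 50 mM imidazole pH7.2, KCl, MgCl2, Tween 20, BSA; 1 h at room temperature. ATP detected by Kinase-Glo luminescence.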
Rango release inh: qHTS Assay for Inhibitors of RanGTP induced Rango (Ran-regulated importin-beta cargo) - Importin beta complex dissociation | hit rate 0.071% among 340,000 | AID 540253, 2011 | Snurportin-1 (Homo sapiens) + GTP-binding nuclear protein Ran (Homo sapiens) + Importin … | Biochemical FRET Rango-importin beta, RanGTP-induced dissociation | Potency, µM (doses to about 46.1 µM); calls by dose curve; note: nearly all actives have a fitted effect of over 45% in size
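FRET read at 45 min, room temperature: inhibitors block the CFP/YFP signal rise when RanGTP (0.6 uM Ran, 2 mM GTP, 0.2 uM RCC1) frees Rango (0.1 uM) from importin beta (0.25 uM). Pre-read after 5 min compound exposure flags interference.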
ELG1 DNA repair: qHTS screen for small molecules that inhibit ELG1-dependent DNA repair in human embryonic kidney (HEK293T) cells expressing luciferase-tagged ELG1 | HEK293T ELG1-luciferase reporter, luminescence, 16 h; DNA damage induced by 5-fluorouridine | Potency, µM (top dose mostly 46.1 µM), most hits filed as inhibitors | hit rate 2.3% among 330,000 | AID 504467, 2011; note: nearly all actives have a fitted effect of over 55% in size
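Step one: seed 2,000 cells per well. Step two: pin-transfer compound or DMSO alongside 5-fluorouridine. Step three: incubate 16 hr, 37 °C, 5% CO2. Step four: add ONE-Glo, wait 30 min, read luminescence.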
Of the large screens only hits and unclear results are named; the others gave an inactive call. Unless noted, calls come from the whole dose curve; as a rule, active = well fitted curve in the direction sought with a large enough effect; inconclusive = small, poorly fitted or top-dose-only effect, or another doubt; inactive = no such curve, though single readings can be large; an effect the other way counts as inactive or inconclusive.

Protein sequences, listed by entry. Tags and fused reporters are not part of them.
Importin subunit beta-1 (Homo sapiens), Q14974, UniProt Q14974, whole entry, looked up: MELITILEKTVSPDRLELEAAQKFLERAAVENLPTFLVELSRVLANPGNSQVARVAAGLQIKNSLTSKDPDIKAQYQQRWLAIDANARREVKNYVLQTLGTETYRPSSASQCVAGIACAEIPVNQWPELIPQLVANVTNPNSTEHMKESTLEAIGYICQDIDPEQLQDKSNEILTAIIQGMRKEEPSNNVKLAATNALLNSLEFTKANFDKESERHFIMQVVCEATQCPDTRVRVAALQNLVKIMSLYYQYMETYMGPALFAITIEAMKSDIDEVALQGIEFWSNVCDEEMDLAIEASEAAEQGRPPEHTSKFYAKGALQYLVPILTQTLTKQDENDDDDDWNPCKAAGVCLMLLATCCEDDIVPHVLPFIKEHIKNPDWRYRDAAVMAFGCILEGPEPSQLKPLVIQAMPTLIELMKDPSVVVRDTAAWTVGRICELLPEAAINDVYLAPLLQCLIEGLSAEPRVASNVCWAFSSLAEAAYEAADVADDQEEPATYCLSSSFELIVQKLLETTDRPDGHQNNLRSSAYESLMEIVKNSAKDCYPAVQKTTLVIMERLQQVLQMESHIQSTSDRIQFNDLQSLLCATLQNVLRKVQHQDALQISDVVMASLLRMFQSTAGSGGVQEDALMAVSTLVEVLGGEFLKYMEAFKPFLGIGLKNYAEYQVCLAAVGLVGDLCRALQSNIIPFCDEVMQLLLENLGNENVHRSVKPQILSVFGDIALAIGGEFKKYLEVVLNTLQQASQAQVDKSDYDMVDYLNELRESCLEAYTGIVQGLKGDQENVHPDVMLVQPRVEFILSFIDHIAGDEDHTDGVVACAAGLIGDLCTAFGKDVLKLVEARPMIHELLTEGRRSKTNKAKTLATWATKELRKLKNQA
Pyruvate kinase PKM (Homo sapiens), P14618, UniProt P14618, whole entry, looked up: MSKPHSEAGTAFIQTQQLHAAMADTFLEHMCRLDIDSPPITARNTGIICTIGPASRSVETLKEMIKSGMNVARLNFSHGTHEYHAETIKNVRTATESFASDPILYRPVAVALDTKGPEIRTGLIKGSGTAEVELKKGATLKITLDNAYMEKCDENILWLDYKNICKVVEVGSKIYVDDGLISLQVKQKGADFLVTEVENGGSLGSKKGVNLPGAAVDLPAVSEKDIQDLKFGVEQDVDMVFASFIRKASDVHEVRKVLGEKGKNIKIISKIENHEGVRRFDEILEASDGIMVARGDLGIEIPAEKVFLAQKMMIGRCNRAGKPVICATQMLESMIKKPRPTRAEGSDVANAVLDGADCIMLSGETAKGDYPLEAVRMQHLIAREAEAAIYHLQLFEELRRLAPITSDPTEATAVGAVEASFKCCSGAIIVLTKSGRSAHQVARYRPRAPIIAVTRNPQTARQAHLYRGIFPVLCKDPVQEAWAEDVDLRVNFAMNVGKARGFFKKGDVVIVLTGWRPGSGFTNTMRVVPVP

Cc1cccc(NC(=O)CNC(=O)COc2cccnc2[N+](=O)[O-])c1C	Rango-impB inh inconclusive (no result: PKM2 activator)
Cc1ccc(-n2c(Cl)c(Cl)nc(Cl)c2=O)cc1	Rango-impB inh inconclusive, Tb PFK inh inconclusive, ELG1 DNA repair 6.5µM
COC(=O)c1ccc(NCc2c(O)ccc(O)c2Br)cc1Cl	none (no result: Tb PFK inh, PKM2 activator, ELG1 DNA repair)
COC(=O)c1ccc(NCc2cc(O)ccc2O)cc1O	Rango-impB inh 18µM (no result: Tb PFK inh, PKM2 activator, ELG1 DNA repair)
C=CCC[C@H](Cc1ccc(F)cc1)C(=O)OC[C@H](Cc1c[nH]c2ccccc12)NC(=O)[C@@H](CC=C)CC(=O)NCCO	ELG1 DNA repair 21µM (no result: PKM2 activator)
C=CCC[C@H](Cc1ccc(F)cc1)C(=O)OC[C@@H](Cc1c[nH]c2ccccc12)NC(=O)[C@@H](CC=C)CC(=O)N[C@@H](CO)Cc1ccccc1	none (no result: PKM2 activator)
C=CC[C@H](CC(=O)N(CCO)Cc1ccccc1)C(=O)N[C@H](COC(=O)[C@@H](CC=C)Cc1ccc(F)cc1)Cc1c[nH]c2ccccc12	ELG1 DNA repair 23µM (no result: PKM2 activator)
C=CC[C@@H](CC(=O)N(CCO)Cc1ccccc1)C(=O)N[C@H](COC(=O)[C@@H](CC=C)Cc1ccc(F)cc1)Cc1c[nH]c2ccccc12	ELG1 DNA repair 21µM (no result: PKM2 activator)
C=CCC[C@@H](Cc1ccc(F)cc1)C(=O)OC[C@@H](Cc1c[nH]c2ccccc12)NC(=O)[C@@H](CC=C)CC(=O)N(CCO)Cc1ccccc1	ELG1 DNA repair inconclusive (no result: PKM2 activator)
C=CCC[C@H](Cc1ccc(F)cc1)C(=O)OC[C@H](Cc1c[nH]c2ccccc12)NC(=O)[C@H](CC=C)CC(=O)N(CCO)Cc1ccccc1	ELG1 DNA repair 21µM (no result: PKM2 activator)
Cc1ccc(F)cc1NC(=O)CSc1ncccn1	none
COc1ccc(C2C(O)C(c3c[nH]c4ccccc34)=NN2C(=O)CCl)cc1 (stereo not given)	Rango-impB inh inconclusive, ELG1 DNA repair 8.2µM
COc1ccc(C2NN=C(c3c[nH]c4ccccc34)C2O)cc1 (stereo not given)	Rango-impB inh inconclusive, ELG1 DNA repair inconclusive (no result: PKM2 activator)
Cc1ccc(N=C2C(=O)Nc3ccccc32)cc1	none (no result: PKM2 activator)
CCN(CC)c1ccc(N=C2C(=O)Nc3ccccc32)cc1	ELG1 DNA repair 16µM (no result: PKM2 activator)
N#Cc1ccc(-c2nc3ccc(Br)cc3c(=O)n2O)cc1	ELG1 DNA repair 9.2µM (no result: PKM2 activator)
COc1cc(C)c(NC(=O)COc2cccc3c2OC(C)(C)C3)cc1OC	ELG1 DNA repair 18µM (no result: PKM2 activator)
COc1cc(NC(=O)COc2cc(O)c3c(c2)OC(C)(C)CC3=O)cc(OC)c1OC	ELG1 DNA repair 10µM
COc1cc(NC(=O)COc2cccc3c2OC(C)(C)C3)cc(OC)c1OC	ELG1 DNA repair 13µM (no result: PKM2 activator)
COc1ccc(NC(=O)COc2cccc3c2OC(C)(C)C3)c(OC)c1	none (no result: PKM2 activator)
Cc1ccc(-n2c(=O)c3c(c4cc(C)ccc4n3C)n(CC(=O)NCCC3=CCCCC3)c2=O)cc1	none (no result: Rango-impB inh, Tb PFK inh, PKM2 activator, Rango release inh, ELG1 DNA repair)
CCOC(=O)C(=CNNc1ccccc1)C(=O)OCC	ELG1 DNA repair 6.5µM
CC(C)c1ccc(/C=N/NC(=O)c2nnn(-c3nonc3N)c2CN(C)C2CCCCC2)cc1	ELG1 DNA repair inconclusive (no result: PKM2 activator)
Cc1ccc(NC(=O)c2cc3c(s2)CCCC3)cc1S(=O)(=O)Nc1ccccc1Cl	Rango-impB inh inconclusive, ELG1 DNA repair 23µM
O=C(Nc1cc(S(=O)(=O)Nc2ccccc2Cl)ccc1O)c1cc2c(s1)CCCC2	none
Cc1ccc(C(=O)Nc2ccc(C)c(S(=O)(=O)Nc3ccccc3Cl)c2)s1	ELG1 DNA repair 21µM
